A short description of data set [1]: solubility of the two drugs (water, volatile organic solvent).
The test system of data set [2] is obesity-induced rat model. In words: body composition analysis (body fat mass and muscle mass) in obesity-induced rat model. Particulars: mean; male SD rats fed 60% HFD, S.C for 4 weeks; Enavogliflozin 0.30 mg/kg once a day; Saxenda: Liraglutide 0.31 mg/kg once a day; Prep. Ex. 1(2W): ENAVO 5.32 + LIRA 2.17 mg/kg once every 2 weeks; 2(2W): ENAVO 4.20 + LIRA 2.17 mg/kg once every 2 weeks; 2(4W): ENAVO 8.40 + LIRA 4.34 mg/kg once every 4 weeks.

The test system of data set [3] is obesity-induced rat model. In words: anti-obesity effectiveness: body weight reduction rate in obesity-induced rat model. The note with it: compared to G1 (vehicle), Fig. 1; male SD rats, high-fat diet 13 weeks, S.C for 4 weeks; Enavogliflozin 0.30 mg/kg once a day; Saxenda: Liraglutide 0.31 mg/kg once a day; Prep. Ex. 1(2W): ENAVO 5.32 + LIRA 2.17 mg/kg once every 2 weeks; 2(2W): ENAVO 4.20 + LIRA 2.17 mg/kg once every 2 weeks; 2(4W): ENAVO 8.40 + LIRA 4.34 mg/kg once every 4 weeks.

In the case of liraglutide, the water solubility result in data set [1] was “about 50 mg/mL”. Also, the “solubility in a volatile organic solvent (for example, methylene chloride)” value in data set [1] (solvent used for manufacturing a microparticle) is “not dissolved at all”.

Regarding `OC[C@H]1O[C@@H](c2cc(Cc3ccc(C4CC4)cc3)c(Cl)c3c2CCO3)[C@H](O)[C@@H](O)[C@@H]1O`, in data set [2], the FAT was found to be 311.1294 g, the “FAT In Tissue” value is listed as 38.6281% and the LEAN is 490.0705 g. For the same molecule, in data set [3], the “body weight reduction rate” value is -3.39%.

The values above are taken from EP4834330A1, “INJECTABLE DEPOT COMPOSITION COMPRISING ENAVOGLIFLOZIN AND LOW-DOSE LIRAGLUTIDE” (dated 2026).
